From publication PMC8305652, “Copper(II) Complexes Containing Natural Flavonoid Pomiferin Show Considerable In Vitro Cytotoxicity and Anti-inflammatory Effects” (International Journal of Molecular Sciences, 2021) come the findings set out here.

One assay relates to osteosarcoma (HOS). The assay is described as follows: in vitro cytotoxicity, MTT assay. The assay is classed as cell-based, human. The settings on record: mean ± SD, at least three independent experiments. As for the experimental part: The testing was performed on the following human cancer cell lines: breast adenocarcinoma (MCF-7), osteosarcoma (HOS), lung adenocarcinoma (A549), prostate adenocarcinoma (PC-3), ovarian carcinoma (A2780), cisplatin-resistant ovarian carcinoma (A2780R) and colorectal adenocarcinoma (Caco-2) obtained from ATCC collection of cell lines and cultivated according to producer’s instructions.
(Tetrazolium dyes change colour on reduction, which living cells bring about.)

For assay [1], the system named is colorectal adenocarcinoma (Caco-2). Description: in vitro cytotoxicity, MTT assay. Type of assay: cell-based, human. The settings on record: mean ± SD, at least three independent experiments.

The term IC50 denotes the concentration that gives 50% inhibition. Consider `CC(C)=CCc1c2c(c3occ(-c4ccc(O)c(O)c4)c(=O)c3c1[O-])C=CC(C)(C)O2.CO.O=[N+]([O-])[O-].[Cu+2].c1ccc(-c2ccnc3c2ccc2c(-c4ccccc4)ccnc23)cc1` [Complex 4, (3-(3,4-dihydroxyphenyl)-8,8-dimethyl-6-(3-methylbut-2-en-1-yl)-4H,8H-benzo[1,2-b:3,4-b′]dipyran-4-one-5-olato-κ^2O4:O5)(4,7-diphenyl-1,10-phenanthroline–κ^2N:N)copper(II) nitrate methanol solvate], for which the midpoint of inhibition in the assay with osteosarcoma (HOS), the IC50, lay at 2600 ± 500 nM.

In assay [1], “(3-(3,4-dihydroxyphenyl)-8,8-dimethyl-6-(3-methylbut-2-en-1-yl)-4H,8H-benzo[1,2-b:3,4-b′]dipyran-4-one-5-olato-κ^2O4:O5)(dipyrido[3,2-a:2′,3′-c]phenazine–κ^2N4:N5)copper(II) nitrate methanol solvate [Complex 5]” had an IC50 of 2600 ± 1600 nM.
